Legend:
[1] = molecular target: T1, 6xHis-tagged HACS1 SH3 domain (human, UniProt Q9NSI8 163-224); test: SPR; biotinylated phosphopeptide on a streptavidin gold sensor chip (OpenSPR); analyte 20 µM to 0.1 µM in 10 mM Tris-HCl, 100 mM NaCl, pH 7.4, 0.1% bovine serum albumin, 0.005% Tween-20, 0.05% NaN3; 40 µL/min; 1:1 interaction model; conditions: both partners purified
T1 construct: human HACS1 SH3 domain, codon-optimized synthetic gene; Gene synthesized, in a pD441NH expression vector (ATUM); 15N-labelled in the NMR experiments; Minimal folded SH3 domain is 168-222 by the NMR structure; also called HACS SH3 domain; 6xHis-tagged SH3 domain; source: E. coli, purified (Nickel-NTA, gel filtration)

[2] = molecular target: T2, 6xHis/Flag-tagged human SHP2 N-SH2 domain (human, UniProt Q06124 1-107); test: as above; conditions: both partners purified
T2 construct: human SHP2 phosphatase, N-SH2 domain, aa; 1-107; Gene synthesized; also called SHP2 SH2-N; SHP2 SH2(N) domain; source: E. coli, purified (Nickel-NTA, gel filtration)
T2 sequence (looked up): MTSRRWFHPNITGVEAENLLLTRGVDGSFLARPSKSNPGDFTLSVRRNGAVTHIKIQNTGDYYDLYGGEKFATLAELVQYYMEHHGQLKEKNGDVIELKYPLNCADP

B1: biotinylated murine PIRB derived phosphopeptide (peptide)
peptide: GGQDVTYAQLCSRTLRQGAAAS
modifications: phosphotyrosine ({pY}, residue 7 of the printed peptide); biotin (position not given)
notes: The leading GG may be a spacer and not part of PIRB; also called murine PIRB phospho-ITIM3 peptide; source: synthetic peptide (Genscript)
[1]
  koff: 0.037 s⁻¹
  kon: 2400 M⁻¹ s⁻¹
[2]
  Kd: 7.4 µM
  koff: 0.05 s⁻¹
  kon: 6800 M⁻¹ s⁻¹
